Values of other authors as cited in patent US11472857B2 (Purdue Research Foundation, priority 2015, dated 2022).

Conditions: acidic (pH<3) and alkaline (pH>9) conditions; cited from earlier work

## CSCC[C@H](NC(=O)[C@H](CC(C)C)NC(=O)[C@H](Cc1c[nH]c2ccccc12)NC(=O)[C@H](CCC(N)=O)NC(=O)[C@@H](NC(=O)[C@H](Cc1ccccc1)NC(=O)[C@H](CC(=O)O)NC(=O)[C@H](CCC(N)=O)NC(=O)[C@H](C)NC(=O)[C@H](CCCN=C(N)N)NC(=O)[C@H](CCCN=C(N)N)NC(=O)[C@H](CO)NC(=O)[C@H](CC(=O)O)NC(=O)[C@H](CC(C)C)NC(=O)[C@H](Cc1ccc(O)cc1)NC(=O)[C@H](CCCCN)NC(=O)[C@H](CO)NC(=O)[C@H](Cc1ccc(O)cc1)NC(=O)[C@H](CC(=O)O)NC(=O)[C@H](CO)NC(=O)[C@@H](NC(=O)[C@H](Cc1ccccc1)NC(=O)[C@@H](NC(=O)CNC(=O)[C@H](CCC(N)=O)NC(=O)[C@H](CO)NC(=O)[C@@H](N)Cc1c[nH]cn1)[C@@H](C)O)[C@@H](C)O)C(C)C)C(=O)N[C@@H](CC(N)=O)C(=O)N[C@H](C(=O)O)[C@@H](C)O [Glucagon, glucagon]
  Chemical degradation of native glucagon in solution: known to undergo chemical degradation
